In publication PMC4007590, “Development of an oligonucleotide-based fluorescence assay for the identification of tyrosyl-DNA phosphodiesterase 1 (TDP1) inhibitors” (Analytical Biochemistry, 2014) one finds IC50 data, which are given here for 1 compound.

The chains behind the UniProt entries cited, without tags or fusion partners. Residues count along the entry.
UniProt Q9NUW8, 149-608 limits assumed: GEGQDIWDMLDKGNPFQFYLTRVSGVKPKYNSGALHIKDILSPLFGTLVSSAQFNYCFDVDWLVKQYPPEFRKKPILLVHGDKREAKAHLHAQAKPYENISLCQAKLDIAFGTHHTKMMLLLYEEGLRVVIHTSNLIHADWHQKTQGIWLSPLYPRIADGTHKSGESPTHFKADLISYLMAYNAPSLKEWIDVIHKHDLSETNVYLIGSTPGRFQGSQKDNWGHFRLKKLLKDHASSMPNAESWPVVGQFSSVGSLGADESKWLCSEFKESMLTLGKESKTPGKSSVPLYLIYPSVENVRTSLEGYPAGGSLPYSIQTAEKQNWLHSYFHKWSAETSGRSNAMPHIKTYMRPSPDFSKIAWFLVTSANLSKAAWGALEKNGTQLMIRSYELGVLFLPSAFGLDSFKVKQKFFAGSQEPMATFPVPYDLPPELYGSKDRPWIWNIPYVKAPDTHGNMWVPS

The test addresses T1, tyrosyl-DNA phosphodiesterase 1 (TDP1) (Homo sapiens, UniProt Q9NUW8).
T1 construct: catalytic domain of human TDP1
In words: Gyrasol fluorescence quench assay, FITC-phosphotyrosyl […]mer oligonucleotide substrate, recombinant TDP1. It is filed as biochemical.

Usually IC50 stands for the concentration that inhibits the measured activity by half.

`O=C(O)C1=CC(=C(c2ccc(O)c(C(=O)O)c2)c2ccc(O)c(C(=O)O)c2)C=CC1=O` [aurintricarboxylic acid]: the IC50 stood at 22 nM.
